How the values were obtained:
Format in all cases: cell-based, human
[1] = system: trastuzumab-resistant SK-BR-3 cells; experiment: Cell growth assay, trastuzumab-resistant SK-BR-3 cells; settings: trastuzumab alone, 24 hours
Text: (A) The results of MTT assays are shown, which evaluated the inhibitory effects of stERAP on the growth of trastuzumab-resistant HER2-positive breast cancer cell lines. […] Data represent the mean±SE of three independent experiments (*P<0.05, **P<0.01, and ***P<0.001). (B) immunoblots are shown which indicate that stERAP inhibits HER2-HER3 interaction and HER2-Shc interaction in a trastuzumab-resistant HER2-positive breast cancer cell line.
Cells were harvested, plated into 48-well plates at 2×10^4 cells/well, and maintained in an incubator (37° C.) in the presence of 5% CO2. At the point as instructed, a ten-fold diluted CCK-8 solution was added, this was incubated for 30 minutes, and the absorbance at 450 nm was measured to calculate the number of viable cells.

[2] = system: PHB2 (Ser39) phosphorylation; experiment: PHB2 (Ser39) phosphorylation in SK-BR-3 cells, immunoblot; settings: SK-BR-3, presence of 1 μM stERAP; 100 μg/mL trastuzumab, 10 nM lapatinib
Procedure: (A) Immunoblots are shown which indicate that BIG3 binds to PHB2 and controls its phosphorylation. SK-BR-3 cells and KPL-4 cells were treated for 24 hours with 1 μM stERAP, cell lysates thereof were subjected to immunoprecipitation using an anti-BIG3 antibody and an anti-PHB2 antibody, and immunoblot analyses were performed using the antibodies shown in the drawing. (B) Immunoblots are shown which indicate that PHB2 is phosphorylated via EGFR signaling at Ser39. […] Cells were lysed respectively and were immunoprecipitated using an anti-PHB2 antibody, and immunoblot analyses were performed using the antibodies shown in the drawing.
(§1) Cells were lysed in a lysis buffer (50 mM Tris-HCl: pH 8.0, 150 mM NaCl, 0.1% NP-40, 0.5% CHAPS) containing 0.1% protease inhibitor cocktail III (Calbiochem, San Diego, Calif., USA). The cell lysates were electrophorased, transferred to nitrocellulose membranes by blotting, and then the membranes were blocked with 4% BlockAce solution (Dainippon Pharmaceutical, Osaka, Japan) for 3 hours. […] The blots were scanned using the Image Reader LAS-3000 mini (Fujifilm, Tokyo, Japan). […]

[3] = system: trastuzumab-resistant SK-BR-3 cells; experiment: Cell cycle of trastuzumab-resistant SK-BR-3 cells, FACS; settings: 20 μM stERAP or 100 μg/mL trastuzumab, 24 hours
Procedure: FACS analyses showing the effects of stERAP on the cell cycle are shown.
Cells were fixed using cold 70% ethanol, stained using 20 μg/mL propidium iodide (Sigma) and 1 mg/mL ribonuclease A (Sigma), and analyzed by FACS Calibur (BD, Franklin Lakes, N.J., USA). Cell cycle profiles were evaluated using CellQuest software (BD, Franklin Lakes, N.J., USA).

[4] = system: PP1Cα; experiment: PP1Cα activity of BIG3 immunoprecipitates from SK-BR-3 cells; settings: SK-BR-3, 24 hours; 10 μM H-89, 100 μg/mL trastuzumab, 10 nM lapatinib
Procedure: (A) The expression of BIG3 in a HER2-positive breast cancer cell line is shown. The mRNA levels of BIG3 in a luminal type breast cancer cell line (MCF-7 cells), HER2-positive breast cancer cell lines (BT-474 cells, SK-BR-3 cells, and KPL-4 cells), and a normal mammary gland cell line (MCP-10A cells) were determined by real-time PCR. Data were normalized by the β2-MG content and expressed as multiples (-fold) of the value in MCF-10A cells, with that value being defined as 1.0. Data represent the mean±standard error of three independent experiments. (B) Immunoblots are shown which indicate that BIG3 binds with PKA, PP1Cα, and PHB2. SK-BR-3 cells and KPL-4 cells were lysed, the cell lysates were immunoprecipitated using an anti-BIG3 antibody and a rat IgG antibody, and immunoblot analyses were performed using the antibodies shown in the drawing. Data shown are representatives from three independent experiments. (C) The kinase activity and phosphatase activity of BIG3 are shown. […]
The phosphatase activity of PP1Cα was determined using the Protein Phosphatase Assay Kit (AnaSpec, Fremont, Calif., USA). After cell lysates were incubated with a substrate (p-Nitrophenyl phosphate) at room temperature for 60 minutes, the reaction was stopped and the absorbance at 405 nm was measured. […]

[5] = system: BIG3 phosphorylation; experiment: BIG3 phosphorylation (Ser305, Ser1208) in SK-BR-3 and KPL-4 cells, immunoblot; settings: SK-BR-3 and KPL-4, 30 minutes; 10 μM H-89, 100 μg/mL trastuzumab, 10 nM lapatinib
Procedure: Immunoblots are shown which indicate that BIG3 is phosphorylated by PKA through HER2 signaling.
as §1

[6] = system: HER2-HER3 interaction; experiment: HER2-HER3 interaction, immunoprecipitation with anti-HER2 antibody; settings: 24 hours
[7] = system: HER2-Shc interaction; experiment: HER2-Shc interaction, immunoprecipitation with anti-HER2 antibody; settings: 24 hours
[8] = SK-BR-3, BT-474, KPL-4, single agent, trastuzumab 100 μg/mL
[9] = SK-BR-3 and trastuzumab-resistant SK-BR-3, 20 μM stERAP, 100 μg/mL trastuzumab

inhibition of binding of HER2 to HER3 [6, 8]: could hardly inhibit | inhibition of binding of HER2-HER3 [6, 9]: hardly affected | inhibition of binding of HER2 to Shc [7, 8]: could hardly inhibit | inhibition of binding of HER2-Shc [7, 9]: hardly affected
Substance: trastuzumab: HER2 inhibitor
suppression of growth [1]: could not suppress | decrease of PHB2 (Ser39) phosphorylation [2]: hardly observed | effect on cell cycle, single agent [3]: could hardly arrest the cell cycle | inhibition rate for PP1Cα activity [4]: 88% | suppression of BIG3 phosphorylation (Ser305 and Ser1208) [5]: nearly completely suppressed
